Measurements reported in patent US11759509B2, “WT1 antigen peptide conjugate vaccine” (Sumitomo Pharma Co., Ltd., priority 2013, dated 2023).

Sequences of proteins named here, by UniProt entry; tags and fusion partners are left off. A change or cut given only in a name is not applied to a line headed by its entry.
UniProt Q9NZ08: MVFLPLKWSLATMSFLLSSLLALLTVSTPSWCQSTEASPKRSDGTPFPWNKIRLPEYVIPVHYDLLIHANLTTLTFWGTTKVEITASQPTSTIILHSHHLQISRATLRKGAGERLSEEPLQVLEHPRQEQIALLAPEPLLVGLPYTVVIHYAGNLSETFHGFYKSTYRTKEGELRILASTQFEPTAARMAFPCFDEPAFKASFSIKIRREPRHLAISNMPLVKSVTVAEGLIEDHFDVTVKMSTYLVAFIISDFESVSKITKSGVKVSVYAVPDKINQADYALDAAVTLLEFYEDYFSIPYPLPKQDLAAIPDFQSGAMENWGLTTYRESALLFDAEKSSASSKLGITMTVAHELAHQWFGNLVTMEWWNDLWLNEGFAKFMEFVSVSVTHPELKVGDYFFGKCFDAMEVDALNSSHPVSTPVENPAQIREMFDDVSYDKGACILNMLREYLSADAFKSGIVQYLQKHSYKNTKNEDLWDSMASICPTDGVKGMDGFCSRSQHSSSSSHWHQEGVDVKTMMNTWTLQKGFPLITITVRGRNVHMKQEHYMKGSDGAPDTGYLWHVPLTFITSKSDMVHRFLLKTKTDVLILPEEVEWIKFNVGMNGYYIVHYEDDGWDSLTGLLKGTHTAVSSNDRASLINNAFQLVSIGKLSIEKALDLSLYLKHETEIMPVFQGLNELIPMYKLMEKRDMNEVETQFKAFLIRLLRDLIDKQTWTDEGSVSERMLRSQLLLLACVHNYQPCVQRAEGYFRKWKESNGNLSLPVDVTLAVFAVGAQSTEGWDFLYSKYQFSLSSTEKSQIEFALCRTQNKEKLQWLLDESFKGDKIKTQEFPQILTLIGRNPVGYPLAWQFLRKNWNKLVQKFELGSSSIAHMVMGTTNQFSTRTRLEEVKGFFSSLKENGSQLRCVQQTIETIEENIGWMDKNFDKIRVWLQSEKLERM

Target: ERAP1 (Homo sapiens, UniProt Q9NZ08)
Test: Time-course changes of trimming of N-terminal amino acid by ERAP1
Assay type: biochemical
Settings: room temperature
Description: Time-Course Changes of Trimming of N-Terminal Amino Acid by ERAP1
The peptides of SEQ ID NOs: 13, 16, 18 and 17 synthesized in Examples 2-5 were evaluated for the trimming of the N-terminal amino acid by ERAP1 (PLoS One November 2008, vol. 3, Issue 11, e3658).
30 μl of ERAP1 (2.0 mg/ml) in PBS buffer solution was added to 258 μl of Tris·HCl buffer. DMSO solution (12.0 μl) of 10 mM each peptide was added to the aforementioned ERAP1 solution, and the mixture was blended well and stood at room temperature. 1.0, 2.0, 4.0, 8.0 hr later, 50 μl of a sample was added to 150 μl of MeOH to terminate the reaction, 25 μl was injected into UFLC (analysis conditions shown below), and AUC of the object peptide was determined. Peptide obtained by trimming was chemically synthesized separately, and analyzed under similar conditions free of enzyme. The formation ratio of peptide obtained by trimming was determined based on the obtained AUC. • analysis conditions • pump: UFLC manufactured by Shimadzu • column: Shim-pack XR-ODS 3.0 mmi.d.×75 mm • solution: 0.1% TFA H2O(A)-0.1% TFA CH3CN(B) • oven temperature: 40° C. • flow rate: 1.0 ml/min • detection wavelength: λ=220 nm • gradient: • 1. Concentration of SOLUTION B was raised from 1.0% to 70% from 0.0 min to 5.0 min • 2. Concentration of SOLUTION B was raised from 1.0% to 50% from 0.0 min to 5.0 min • object peptide:
As for the peptides synthesized in Examples 2-5, the amino acid sequences of the peptides obtained by trimming of N-terminal amino acid by ERAP1 are shown in Table 55.

Compound: CSCC[C@H](NC(=O)[C@H](CCCNC(=N)N)NC(=O)[C@@H](N)CS)C(=O)N[C@@H](Cc1ccccc1)C(=O)N1CCC[C@H]1C(=O)N[C@@H](CC(N)=O)C(=O)N[C@@H](C)C(=O)N1CCC[C@H]1C(=O)N[C@@H](Cc1ccc(O)cc1)C(=O)N[C@@H](CC(C)C)C(=O)O [Example 2, CRMFPNAPYL]
- formation rate (%) of the peptide obtained by trimming, 1 hr later (1 hr later): 25.5%
- formation rate (%) of the peptide obtained by trimming, 2 hr later (2 hr later): 35.2%
- formation rate (%) of the peptide obtained by trimming, 4 hr later (4 hr later): 46.2%
- formation rate (%) of the peptide obtained by trimming, 8 hr later (8 hr later): 47.6%
